Laboratory results from patent US12419858B2, “Salt of terphenyl compound” (Taiho Pharmaceutical Co., Ltd., priority 2019, dated 2025).

Experiment: Pharmacokinetic (PK) studies in rats
Method: Each drug was administered to the animal at a dose of 32 mg/5 mL/kg.

Q: For `CC(C)(O)Cc1ccc(-c2ccc(C(=O)N3CC[C@H](N)C3)cc2-c2ccc(C#N)c(F)c2)c(F)c1.O=C(O)c1ccccc1` [benzoic acid salt of Compound A, benzoic acid salt of 4-[5-[(3S)-3-aminopyrrolidine-1-carbonyl]-2-[2-fluoro-4-(2-hydroxy-2-methyl-propyl)phenyl]phenyl]-2-fluoro-benzonitrile], which AUC (rats, dose of 32 mg/5 mL/kg) is on record?
A: 16.13 µM·h

Q: With `CC(C)(O)Cc1ccc(-c2ccc(C(=O)N3CC[C@H](N)C3)cc2-c2ccc(C#N)c(F)c2)c(F)c1` [free form of Compound A, 4-[5-[(3S)-3-aminopyrrolidine-1-carbonyl]-2-[2-fluoro-4-(2-hydroxy-2-methyl-propyl)phenyl]phenyl]-2-fluoro-benzonitrile] as the compound, how does the AUC (rat, in vivo, 32 mg/kg) read?
A: 16 µM·h
